# Test results as given in patent US20230398123A1, “METHODS TO TREAT INFLAMMATORY BOWEL DISEASE” (SHANGHAI PHARMACEUTICALS HOLDING CO., LTD., priority 2021, published 2023).
# Tested on: renin
# Details: low dose of 0.2 mg/kg
smiles,measurement,value
COC(=O)NCCCn1nc([C@@H](C)N(C(=O)C2CNCCO2)C2CC2)c2ccc(C)nc21 (stereo partly shown) [Formula (I)],time for which activity was maintained,24 h
